In paper PMC8279415, “Targeting Acute Myelogenous Leukemia Using Potent Human Dihydroorotate Dehydrogenase Inhibitors Based on the 2-Hydroxypyrazolo[1,5-a]pyridine Scaffold: SAR of the Biphenyl Moiety” (Journal of Medicinal Chemistry, 2021):
Where two headings read alike, the source gives them in different places.

The chains behind the UniProt entries cited, without tags or fusion partners. Where a name states a change or a piece, a line headed by the entry shows the natural chain unless it says otherwise.
UniProt Q02127: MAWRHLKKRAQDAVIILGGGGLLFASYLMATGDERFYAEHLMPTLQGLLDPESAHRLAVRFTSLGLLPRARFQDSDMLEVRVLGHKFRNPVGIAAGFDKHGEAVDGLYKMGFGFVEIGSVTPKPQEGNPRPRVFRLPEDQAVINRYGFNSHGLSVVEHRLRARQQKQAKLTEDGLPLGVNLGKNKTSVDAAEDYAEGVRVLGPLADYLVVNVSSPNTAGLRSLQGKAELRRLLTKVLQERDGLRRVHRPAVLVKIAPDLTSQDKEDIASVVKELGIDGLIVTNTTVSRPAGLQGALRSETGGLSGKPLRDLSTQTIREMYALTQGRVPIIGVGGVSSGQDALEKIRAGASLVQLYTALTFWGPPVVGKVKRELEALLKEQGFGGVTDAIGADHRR

Key:
recombinant hDHODH = recombinant hDHODH (Homo sapiens, UniProt Q02127); experiment: hDHODH inhibition assay (DCIP reduction); details: read-out: hDHODH, IC50 ± SE
THP1 cells [1] = details: read-out: myeloid differentiation EC50 THP1 (earlier work); cited from earlier work
U937 cells = experiment: Annexin V apoptosis assay in U937; details: Homo sapiens, U-937, 72 h, read-out: apoptosis EC50 U937 (CL 95%)
THP1 cells [2] = experiment: Annexin V apoptosis assay in THP1; details: Homo sapiens, THP-1, read-out: Apoptosis EC50 (C.L.95%) (supplement CSV)
[3] = LogD7.4, shake-flask n-octanol/PBS; details: pH 7.4

Structure (SMILES): CCCOc1cccc(-c2c(F)c(F)c(NC(=O)c3c(O)nn4ccccc34)c(F)c2F)c1 [Compound 17, 2-Hydroxy-N-(2,3,5,6-tetrafluoro-3′-propoxy-[1,1′-biphenyl]-4-yl)pyrazolo[1,5-a]pyridine-3-carboxamide]
- IC50 (recombinant hDHODH): 4.09 ± 0.62 nM

Structure (SMILES): Cc1c(-c2ccc(-c3ccccc3F)cc2)nc2ccc(F)cc2c1C(=O)O [Brequinar, reference compound]
- EC50 (THP1 cells [1]): 265 nM
- EC50 (U937 cells): 322 nM
- EC50 (THP1 cells [2]): 299 nM

Structure (SMILES): COc1cccc(-c2c(F)c(F)c(NC(=O)c3c(O)nn4ccccc34)c(F)c2F)c1 [Compound 16, 2-Hydroxy-N-(2,3,5,6-tetrafluoro-3′-methoxy-[1,1′-biphenyl]-4-yl)pyrazolo[1,5-a]pyridine-3-carboxamide]
- logD at 20 min [3]: 2.46 ± 0.04
